Experimental data reported in patent US20250367263A9, “Therapeutic Regimens and Methods for Treatment of Cardiovascular Risk Factors using a GLP-1R and GCGR Agonist” (Spitfire Pharma LLC, priority 2022, published 2025).

Amino acid sequences for entries named in this document (tags omitted). Residues count along the entry.
UniProt P47871, 26-477: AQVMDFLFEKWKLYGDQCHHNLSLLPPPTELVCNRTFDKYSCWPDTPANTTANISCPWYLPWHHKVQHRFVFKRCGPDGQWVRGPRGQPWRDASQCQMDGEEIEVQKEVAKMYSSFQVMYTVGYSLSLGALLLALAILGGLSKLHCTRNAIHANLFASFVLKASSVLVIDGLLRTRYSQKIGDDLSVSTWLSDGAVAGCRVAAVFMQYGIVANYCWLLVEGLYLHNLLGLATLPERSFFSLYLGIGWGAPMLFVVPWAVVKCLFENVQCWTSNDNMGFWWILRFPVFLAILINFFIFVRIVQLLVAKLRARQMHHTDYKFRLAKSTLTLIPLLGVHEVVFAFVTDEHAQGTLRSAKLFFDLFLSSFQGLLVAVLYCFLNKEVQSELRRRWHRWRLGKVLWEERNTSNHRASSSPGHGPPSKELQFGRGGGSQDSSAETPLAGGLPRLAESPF

Assays:
glucagon receptor (GCGR) = glucagon receptor (GCGR) (Homo sapiens, UniProt P47871); experiment: GCGR agonist activity (cellular assay); assay type: cell-based
Source text: This disclosure relates to a dual agonist peptide(s) as well as pharmaceutical dosage formulations comprising, and methods for using, the same. The dual agonist peptides have affinity for, and in preferred embodiments about equal affinity for, glucagon-like peptide 1 receptor (GLP-1R) and glucagon receptor (GCGR), as may be determined using a cellular assay. In preferred embodiments, this disclosure provides methods for using pemvidutide (e.g., preferably pharmaceutical dosage formulation comprising SEQ ID NO: 1) that upon administration to a human being prevents and/or treats cardiovascular (CV) disease and/or CV disease-related conditions, symptoms, causes, and/or risks thereof. In some embodiments, the human being is overweight, obese (e.g., a body mass index of at least about 25), and may or may not suffer from type 2 diabetes. In preferred embodiments, the administration of pemvidutide as disclosed herein results in the weight loss and/or a reduction in waistline (“waist circumference”) measurements. In preferred embodiments, the CV disease-related conditions, including but not limited to high cholesterol, triglycerides, LDL and/or VLDL particle concentration and/or diameter, weight loss and/or reduction in waistline measurement, is significant as measured against an untreated or control (e.g., vehicle-treated) individual and/or population. […]

[1] = test system: ABCG8 gene expression in liver; experiment: Liver gene expression by RT-PCR in diet-induced obese hamsters: ABCG8; assay type: in vivo, male Golden Syrian hamsters; conditions: 10 nmol/kg SC daily for 21 days, as opposed to semaglutide and vehicle
Experimental: The study was conducted in male Golden Syrian hamsters placed on a free choice diet (free choice between a chow diet with normal tap water or a high fat/cholesterol diet (Safe Diets, 40.8% fat, 14.8% protein, 44.4% carbohydrates and 0.5% cholesterol, 4444.2 kcal/kg diet) with 10% fructose enriched tap water (0.4 kcal/L) provided ad libitum for a minimum of 20 weeks prior to the study start and until the end of the experiment. After randomization based on body weight, hamsters were assigned to three groups of 5 animals receiving vehicle, pemvidutide (10 nmol/kg) or semaglutide (10 nmol/kg) administered subcutaneously daily for 21 days. After 21 days, hamsters were sacrificed, and livers were collected. Total RNA was extracted from frozen liver tissue before measuring gene expression by RT-PCR across a range of markers including CYP7A, ABCA1, ABCG1, ABCG5, ABCG8, SREBP1c, SRB1 and LDL-R.

CC[C@H](C)[C@H](NC(=O)[C@H](Cc1ccccc1)NC(=O)[C@H](CCC(=O)O)NC(=O)[C@@H]1CCCCNC(=O)CC[C@H](NC(=O)[C@H](CC(=O)O)NC(=O)[C@H](CC(C)C)NC(=O)[C@H](Cc2ccc(O)cc2)NC(=O)[C@H](CCCCN)NC(=O)[C@H](CO)NC(=O)[C@H](Cc2ccc(O)cc2)NC(=O)[C@H](CC(=O)O)NC(=O)[C@H](CO)NC(=O)[C@@H](NC(=O)[C@H](Cc2ccccc2)NC(=O)[C@@H](NC(=O)CNC(=O)[C@H](CCC(N)=O)NC(=O)C(C)(C)NC(=O)[C@@H](N)Cc2c[nH]cn2)[C@@H](C)O)[C@@H](C)O)C(=O)N[C@@H](CCCCNC(=O)[C@H]2O[C@@H](OCCCCCCCCCCCCCCCCCC(=O)O)[C@H](O)[C@@H](O)[C@@H]2O)C(=O)N[C@@H](C)C(=O)N[C@@H](C)C(=O)N1)C(=O)N[C@@H](CCC(N)=O)C(=O)N[C@@H](Cc1c[nH]c2ccccc12)C(=O)N[C@@H](CC(C)C)C(=O)N[C@@H](CC(C)C)C(=O)N[C@@H](CCC(N)=O)C(=O)N[C@H](C(N)=O)[C@@H](C)O [pemvidutide]
EC50 (glucagon receptor (GCGR)): ~0.04 nM
ABCG8 gene expression in liver, fold change compared to vehicle [1]: significant increase
